Structures are written as SMILES. pIC50: −log10 of the molar value.

Sequences of proteins named here, by UniProt entry; tags and fusion partners are left off.
UniProt P28223, whole entry: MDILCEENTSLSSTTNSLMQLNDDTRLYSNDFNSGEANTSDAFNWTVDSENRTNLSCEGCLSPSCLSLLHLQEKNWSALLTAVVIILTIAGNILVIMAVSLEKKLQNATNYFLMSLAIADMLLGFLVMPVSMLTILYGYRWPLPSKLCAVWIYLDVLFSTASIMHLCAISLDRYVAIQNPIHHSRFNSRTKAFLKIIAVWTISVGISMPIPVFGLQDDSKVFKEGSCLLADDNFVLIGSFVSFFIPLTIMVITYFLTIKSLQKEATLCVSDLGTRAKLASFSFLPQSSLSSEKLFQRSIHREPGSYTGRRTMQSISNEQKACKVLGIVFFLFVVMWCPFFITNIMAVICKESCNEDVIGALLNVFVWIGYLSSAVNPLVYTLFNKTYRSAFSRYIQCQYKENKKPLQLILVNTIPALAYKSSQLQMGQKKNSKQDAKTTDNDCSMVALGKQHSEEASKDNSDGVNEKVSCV

For the assay, the target named is 5HT2A (Homo sapiens, UniProt P28223). Description: Human 5HT2A inhibition assay (FLIPR calcium 6, 5HT stimulus, stably transfected HEK293 cells). Format: cell-based.

As to `Cc1ccc2c(c1)CCc1cccnc1C2=C1CCN(CCc2c(C)nc3n(c2=O)CCCC3O)CC1` (centres unmarked), the pIC50 (as a rule, −log10 of the IC50, conventionally taken in molar units) is 7.17 and the “IC50 (nM)” value is “less potency than compound 11c”.

Values taken from paper PMC10799935, “Discovery of a peripheral 5HT2A antagonist as a clinical candidate for metabolic dysfunction-associated steatohepatitis” (Nature Communications, 2024).
